# Like-named read-outs stand apart in the source and are kept apart here.
# System: HK2 human kidney cortex/proximal tubule cells
# Conditions: for Cell Viability Avg: FIG. 7H
substance,measurement,setting,value
Doxorubicin Disubstituted Maleamic Acid Glutathione Conjugate [Dox-DMA-GSH 8],Cell Viability Avg,"HK2, pHe 7.4, 3 nM",103%
same,Cell Viability Avg,"HK2, pHe 7.4, 10 nM",105%
same,Cell Viability Avg,"HK2, pHe 7.4, 30 nM",98%
same,Cell Viability Avg,"HK2, pHe 7.4, 100 nM",107%
same,Cell Viability Avg,"HK2, pHe 7.4, 300 nM",96%
same,Cell Viability Avg,"HK2, pHe 7.4, 1000 nM",106%
same,Cell Viability Avg,"HK2, pHe 7.4, 3000 nM",93%
same,Cell Viability Avg,"HK2, pHe 7.4, 10000 nM",78%
same,Cell Viability Avg,"HK2, pHe 7.4, 30000 nM",71%
same,"less toxic than free Dox, fold in concentration","HK2, pHe 7.4 (FIG. 7H)",30 fold

# From patent US12285437B2 (The Research Foundation for The State University of new York, priority 2019, dated 2025)
